# Binding of CDR-mutated scFvs to a peptide of the spike HR2 region

Values reported by Li et al. 2023, doi:10.1038/s41467-023-39022-2 (FLAb copy).

Target peptide (SARS-CoV-2 spike, HR2 region): PDVDLGDISGINAS

Parent scFv Ab-14: VH joined to VL by a 15-residue (Gly4Ser)3 linker. Changes lie in the heavy chain CDRs alone.
VH: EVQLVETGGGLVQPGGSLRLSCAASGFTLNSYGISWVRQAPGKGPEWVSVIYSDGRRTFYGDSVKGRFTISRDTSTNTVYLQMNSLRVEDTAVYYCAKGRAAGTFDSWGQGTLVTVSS
VL: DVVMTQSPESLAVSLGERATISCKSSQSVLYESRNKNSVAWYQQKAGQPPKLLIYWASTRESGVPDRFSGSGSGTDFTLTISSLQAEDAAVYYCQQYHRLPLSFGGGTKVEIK

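The parent was found by panning a naive human phage display library on the peptide. The variants were designed computationally from a first round of random CDR variants and then made and measured. Their group label is 14H_Rand (Rand: our label for a block that the file lists under HC and that is probably the random mutants of the ten best first-round binders). Affinity was read by AlphaSeq, a pooled yeast mating assay with surface-displayed partners. Pairs that bind mate more often; barcode pairs of the diploids are counted by sequencing. A regression on co-assayed BCL2-family reference pairs converts the normalised counts of each replicate to an apparent Kd. The assay was run in six technical replicates.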

Variants are written as CDR1, CDR2 and CDR3 of the heavy chain (limits as in the source). Parent: GFTLNSYGIS, VIYSDGRRTFYGDSVK, GRAAGTFDS. Numbers give log10(Kd / nM), so 0 is 1 nM and 3 is 1 µM. Smaller is tighter. A mean of the replicates is given; it leaves out those without a signal. "nd" marks a missing value. The strain was present, yet no cells mated with the target were sequenced in that replicate, which points to weak or no binding. The authors averaged sequences with at least three values out of six and counted those with two or fewer as poor binders.

| CDR-H1 | CDR-H2 | CDR-H3 | log10 Kd, replicates | mean, log10 nM | empty controls |
|---|---|---|---|---|---|
| GETLNQYGIW | VIYSDGRRTFYSDSQK | GRAAGFFDS | nd 1.66 nd nd nd nd | 1.66 | 0 of 18 |
| GFTLNEYDIS | VIYSDGRRTFYTDSVK | GNFIGTFDS | nd nd nd nd nd nd | nd | 0 of 18 |
| GFDLNLYGRS | VIYSDGRRTFYDDSVK | GQLAGTFDS | nd nd nd nd nd 1.72 | 1.72 | 1 of 18 (0.62) |
| GFTLNEYGIS | VIYSDGRRTFYGDSVK | GRATVTFDQ | nd nd nd nd nd nd | nd | 0 of 18 |
| GFTLNSYGIS | VIYSDGRRTFYSDSVK | GRAHCTFDS | nd nd nd nd nd nd | nd | 0 of 18 |
| GFDLNSYGIS | VQYSDGRRTFYGDSVK | GRAAGWFNS | nd nd nd nd nd nd | nd | 0 of 18 |
| GFTLNSYGIS | VIYSDERRTFYDDSVK | GQLAGTFDS | nd nd nd nd nd nd | nd | 0 of 18 |
| GFTLNSYGIS | VIYADGRATFYGDSVK | GRAAGTPKS | nd nd nd nd nd nd | nd | 0 of 18 |
| GFHLNSYGIS | VIYSDGRRQFYGDSVK | GRAAGWFNS | nd nd nd nd nd nd | nd | 0 of 18 |
| GFTLNQYPIS | VIYAWGRRTFYSDSVK | GRACGFFDS | nd nd nd nd nd nd | nd | 0 of 18 |
| YFTLNEYGIS | VIYSDGRRTFYTDSVK | GRFAFTFDS | nd nd nd nd nd nd | nd | 0 of 18 |
| GFTLNSYGIL | VIYGPGRRTFYDDSVK | SQLAGTFDS | nd nd nd nd nd nd | nd | 0 of 18 |
| GFTLDSYGIS | VIYSDGNRTFYGDSVK | GRAAGTALS | nd nd nd nd nd nd | nd | 1 of 18 (2.72) |
| GFTLNDYGIS | VSYSDGRRTFYPDSVK | SRAALTFIS | nd nd nd nd nd nd | nd | 0 of 18 |
| GMTLNSYGIS | VIYSDGRRTFYSDSVK | GRAMGTFDS | 1.79 nd 2.68 2.60 1.81 3.52 | 2.48 | 1 of 18 (2.13) |
| GFTDNSYGIS | VIYADGRRTFYGDSVK | GRAAGTNKS | nd nd nd nd nd nd | nd | 1 of 18 (2.13) |
| GFTLDSYGIS | VIYSDGRRTFWGDSVK | GRAAGTALS | nd nd nd nd nd nd | nd | 0 of 18 |
| GFTLNDYGIS | VIYSDGRRTFYGDSVK | NRAALTFIS | nd nd nd nd nd nd | nd | 1 of 18 (1.75) |
| GFTLNDYGIS | VIYSDGRRTQYIDSVK | GAAAGTFDS | 1.36 0.52 1.32 0.37 0.22 0.54 | 0.72 | 0 of 18 |
| TFTLNEYAIS | VIYSDGRRTFYTDSVK | GRFAGTFDS | nd nd nd nd nd nd | nd | 0 of 18 |
| GFTLNDYGIS | VIYSDGRRTQYIDSVK | GRAAGTFRS | nd nd nd nd nd nd | nd | 0 of 18 |
| GFTLNSYGIS | VIYSMGRRTFYSDSVK | GRAGGTFDH | nd nd nd nd nd nd | nd | 0 of 18 |
| GFTLNDYGIS | VIYSDGRCTQYIDSVK | GRAAGTFDS | nd nd nd nd nd nd | nd | 1 of 18 (2.19) |
| GFDLNSYGIS | VIYSVGRRTFYGDSVK | GRAAGWFNS | nd nd nd nd nd nd | nd | 0 of 18 |
| GFTPNSYGIS | VWYSDGRRTFDSDSVK | GRAGGTFDS | nd nd nd nd nd nd | nd | 0 of 18 |
| GFTLNEYGIS | VIYSDGARTFYTDSVK | GRFAGTFDS | nd 1.28 0.67 0.93 0.43 0.94 | 0.85 | 0 of 18 |
| GFDLNSYGIS | VIMSDGRRTFYGDSVK | GRAAGWFNS | nd nd nd nd nd nd | nd | 0 of 18 |
| GFTLNQYGIS | VRYSDGRRTFYSDSVK | GRAAGFFYS | nd nd nd nd nd nd | nd | 0 of 18 |
| GFTYNEYGIS | VIYSDGRRTFYGDSRK | GRAAVTFDQ | nd nd nd nd nd nd | nd | 0 of 18 |
| GFTLNEYGIS | VIYSDGRRTFYGDSVK | CRAAVTFDQ | nd nd nd nd nd nd | nd | 0 of 18 |
| GFTLNDYGIS | VIYSDGRRTFYGDSVK | GRAALTFAS | nd nd nd nd nd nd | nd | 0 of 18 |
| GFTLNSYGLS | VIYSDGRNSFYDDSVK | GQLEGTFDS | nd nd nd nd nd nd | nd | 1 of 18 (1.55) |
| GITLDSYGWS | VIYSCGRRTFYGDSVK | GRLAGTALS | nd nd nd nd nd nd | nd | 0 of 18 |
| GFTLNLYGIS | VIYSDGRRVFWDDSVK | GQLAGSFDS | nd nd nd nd nd nd | nd | 0 of 18 |
| GFTLNDYDIS | VIYSDGRRTFYGDSVK | GRAALTFIS | nd nd nd nd nd nd | nd | 1 of 18 (1.54) |
| GFTLNNYGIS | VIYSDGRRTFYDDSVK | GQLAGTFQS | nd nd nd 1.86 1.86 2.94 | 2.22 | 1 of 18 (2.39) |
| DFQLNQYGIS | VIYSDGRRTFYSDSVK | GRAAGFFDS | nd nd nd nd nd nd | nd | 0 of 18 |
| GVDLNSYGIS | VIYSLGRRTFDGDSVK | GRLAGWFNS | nd nd nd nd nd nd | nd | 0 of 18 |
| GFDLNSYGIS | VIYSDGRRTFYGDSVK | GLAAGWFNS | nd nd nd nd nd nd | nd | 0 of 18 |
| GFTEVDYGIS | VINEDGRRTQYIDSIK | GRAAGTFDS | nd nd nd nd nd nd | nd | 0 of 18 |
| GFTLNSYGIS | VIYSDGRRTYYSDSVK | GRAGGTFDS | nd 2.99 nd nd 2.09 nd | 2.54 | 0 of 18 |
| GFDYNSYGIS | VIYSDGRRTHYGDSVK | GRAAGWFNS | nd nd nd nd nd nd | nd | 0 of 18 |
| GFDLNSYGIS | VISSDGRRTLYGDGVK | GRAAGWFNS | nd nd nd nd nd nd | nd | 1 of 18 (1.59) |
| GFTLNNYNIS | VIYADGRMTFYGDSVK | GRAAGTNKS | nd nd nd nd nd nd | nd | 1 of 18 (1.33) |
| GFTVNEYGIS | VIYSDGRRTFYTDSVK | GGFAGTFDS | nd nd nd nd nd nd | nd | 0 of 18 |
| GFTLCDYGIS | VIYSDGRRTQYIDSVK | GRAAGTFDS | 1.26 nd nd nd 2.73 nd | 1.99 | 0 of 18 |
| GFTLNDYGIS | VIYSDGHRTFYGDSVK | GRAALTFIS | nd nd nd nd nd nd | nd | 0 of 18 |
| GFDLNSYGIS | VIYSDGRRTFYGDSVK | GRAAGWFNK | nd nd nd nd nd nd | nd | 0 of 18 |

The first 7 variants above that were never detected:

CDR-H1,CDR-H2,CDR-H3,"log10 Kd, replicates","mean, log10 nM",empty controls
GFTLNEYDIS,VIYSDGRRTFYTDSVK,GNFIGTFDS,nd nd nd nd nd nd,nd,0 of 18
GFTLNEYGIS,VIYSDGRRTFYGDSVK,GRATVTFDQ,nd nd nd nd nd nd,nd,0 of 18
GFTLNSYGIS,VIYSDGRRTFYSDSVK,GRAHCTFDS,nd nd nd nd nd nd,nd,0 of 18
GFDLNSYGIS,VQYSDGRRTFYGDSVK,GRAAGWFNS,nd nd nd nd nd nd,nd,0 of 18
GFTLNSYGIS,VIYSDERRTFYDDSVK,GQLAGTFDS,nd nd nd nd nd nd,nd,0 of 18
GFTLNSYGIS,VIYADGRATFYGDSVK,GRAAGTPKS,nd nd nd nd nd nd,nd,0 of 18
GFHLNSYGIS,VIYSDGRRQFYGDSVK,GRAAGWFNS,nd nd nd nd nd nd,nd,0 of 18

The range of this assay differs from that of the first round, and the authors advise against merging the two. The parent sequence was in this pool as ten entries: three were never detected, three once, and four in most replicates, with averages from 0.34 to 2.37. As a blank, each scFv also met three strains without target: over all heavy chain designs, 1% of these pairings were detected, typically at 2.08 and seldom below 0.84. The control count says in how many pairings with the empty strains this scFv gave a signal, with their mean in brackets.